How the values were obtained:
[1] = tested on: K. pneumoniae ATCC 700603; assay: Antimicrobial-resistance test; assay type: cell-based, Klebsiella pneumoniae; settings: 1/2 × MIC
[2] = tested on: MRSA ATCC 33591; assay: Antimicrobial-resistance test; assay type: cell-based, methicillin-resistant Staphylococcus aureus; settings: 1/2 × MIC

CO/N=C(\C(=O)N[C@@H]1C(=O)N2C(C(=O)O)=C(COC(C)=O)CS[C@H]12)c1csc(N)n1 [Cefotaxime]
increase in MIC after continuous 14 passages exposure [1]: up to 256 fold | increase in MIC after continuous 14 passages exposure [2]: up to 8 fold
